The values that follow come from patent US20230136717A1, “EPLIN AS A BIOMARKER FOR CANCER” (Turun yliopisto, priority 2020, published 2023).

This experiment relates to HNSCC cell lines. As to the kind of experiment: Sensitivity of HNSCC cell lines to EGFR-TKi after silencing EPLIN. In kind it is cell-based. Particulars: siRNA silencing of EPLIN; FIG. 6C.

In the case of `COc1cc2ncnc(Nc3ccc(F)c(Cl)c3)c2cc1OCCCN1CCOCC1` [Gefitinib], the “sensitivity of HNSCC cells to the drug on silencing EPLIN expression” value was “decreases sensitivity”.

On to Cetuximab, for which the “sensitivity of HNSCC cells to the drug on silencing EPLIN expression” value is “decreases sensitivity”.
